A word on the IC50: it is the midpoint of a concentration-inhibition curve.

By UniProt entry, the sequences of proteins in these tests, tags left out. Residues count along the entry.
UniProt O75116, 1-543 limits assumed: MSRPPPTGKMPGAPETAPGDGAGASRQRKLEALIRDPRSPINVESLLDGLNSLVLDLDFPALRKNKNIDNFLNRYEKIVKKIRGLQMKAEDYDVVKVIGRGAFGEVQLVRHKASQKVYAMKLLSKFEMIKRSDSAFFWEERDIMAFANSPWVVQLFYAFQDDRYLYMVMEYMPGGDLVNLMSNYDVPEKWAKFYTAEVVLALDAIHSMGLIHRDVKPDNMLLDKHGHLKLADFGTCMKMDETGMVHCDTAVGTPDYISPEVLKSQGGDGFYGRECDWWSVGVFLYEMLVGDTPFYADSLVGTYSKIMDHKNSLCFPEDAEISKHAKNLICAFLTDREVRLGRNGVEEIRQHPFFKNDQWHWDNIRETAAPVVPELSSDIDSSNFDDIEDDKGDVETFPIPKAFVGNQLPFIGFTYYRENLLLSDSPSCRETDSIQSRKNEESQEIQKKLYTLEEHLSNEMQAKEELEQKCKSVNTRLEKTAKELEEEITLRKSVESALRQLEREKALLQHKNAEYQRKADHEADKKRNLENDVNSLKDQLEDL

This assay deals with ROCKII (1-543) (Homo sapiens, UniProt O75116). The experiment in a line: IMAP Assay (fluorescence polarization, FAM S6 peptide). The conditions noted are these: read-out: Assay 2 IC50; IMAP FP, 1 nM ROCKII (1-543), 100 μM ATP. As to the method:
This assay is performed using FAM S6 substrate peptide (Catalogue #R7184) and IMAP FP Screening Express Kit detection reagents from Molecular Devices (Sunnyvale, Calif.) in IMAP kinase reaction buffer (Tris-HCl, pH 7.2, 10 mM MgCl2, 0.05% NaN3, 0.1% phosphate-free BSA) containing 1 mM DTT. Test compounds dissolved in neat DMSO at 0.3 mg/mL are serially diluted 1 to 3 for concentration response in 100% DMSO. The DMSO serial dilutions are further diluted 33.33-fold in kinase reaction buffer, and 10 μL of this buffer dilution is transferred to Corning black 96-well half area NBS plates for a final top concentration of 3 μg/mL in 1% DMSO. 10 μL aliquot of 3 nM ROCKII (1-543) diluted in kinase reaction buffer is added to each assay well for a final concentration of 1 nM kinase. […] The kinase reaction is stopped by addition of 60 μL IMAP progressive binding reagent (Catalog #R7284) diluted 400-fold in 1× Binding buffer A. After 30 min of incubation at room temperature, the plates are read for fluorescence polarization on Analyst Plate Reader using Ex 485 nm, Em 530 nm, and FL 505 dichroic mirror. […]
Where A, B, C, and D are fitted parameters (parameter B is fixed at zero POC), and x and y are the independent and dependent variables, respectively. The IC50 is determined as the inflection point parameter, C.

Turning to `N#Cc1ccc(-c2cnn(Cc3cccc(C(=O)Nc4nc5c(s4)C[C@@H](N4CCCCC4)CC5)c3)c2)cc1`, the IC50 amounted to 0.37 nM.

The values are drawn from patent publication US9000154B2, “Rho kinase inhibitors” (Boehringer Ingelheim International GmbH, priority 2010, dated 2015).
